Assay results: patent US9364476B2, “Methods of treating a Bruton's Tyrosine Kinase disease or disorder” (Celgene Avilomics Research, Inc., priority 2011, dated 2016)

Amino acid sequences for entries named in this document (tags omitted).
UniProt Q06187, whole entry, species assumed: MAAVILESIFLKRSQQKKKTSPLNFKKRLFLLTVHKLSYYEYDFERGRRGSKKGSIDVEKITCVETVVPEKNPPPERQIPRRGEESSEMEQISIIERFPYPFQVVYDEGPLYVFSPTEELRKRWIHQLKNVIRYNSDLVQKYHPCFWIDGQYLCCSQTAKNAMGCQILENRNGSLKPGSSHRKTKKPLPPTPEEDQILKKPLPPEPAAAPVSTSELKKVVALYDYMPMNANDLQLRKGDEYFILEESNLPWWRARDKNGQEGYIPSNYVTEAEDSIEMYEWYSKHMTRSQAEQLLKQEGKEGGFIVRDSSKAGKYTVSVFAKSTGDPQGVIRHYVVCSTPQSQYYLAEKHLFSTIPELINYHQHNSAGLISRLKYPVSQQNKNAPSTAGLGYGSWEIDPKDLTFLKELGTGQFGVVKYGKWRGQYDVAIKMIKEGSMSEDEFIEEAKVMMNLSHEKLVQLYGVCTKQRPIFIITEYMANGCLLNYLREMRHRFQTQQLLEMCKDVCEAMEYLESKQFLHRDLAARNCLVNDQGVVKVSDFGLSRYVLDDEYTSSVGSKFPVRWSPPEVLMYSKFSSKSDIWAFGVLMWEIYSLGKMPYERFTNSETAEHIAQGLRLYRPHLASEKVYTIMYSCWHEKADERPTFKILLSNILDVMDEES

What was measured:
Btk [1] = target: T1, Btk (Homo sapiens, UniProt Q06187); assay: Btk inhibition; assay type: biochemical
Btk [2] = target: T1, Btk; settings: dose levels ≧250 mg QD
[3] = once daily 125, 250, 400, 625 and 750 mg
Btk [4] = target: T1, Btk; assay: in vivo

C=CC(=O)Nc1cccc(Nc2nc(Nc3ccc(OCCOC)cc3)ncc2F)c1.O=S(=O)(O)c1ccccc1 [N-(3-(5-fluoro-2-(4-(2-methoxyethoxy)phenylamino)pyrimidin-4-ylamino)phenyl)acrylamide besylate]
IC50 (Btk [1]): < 0.5 nM
Btk occupancy (Btk [2]): Full Btk occupancy
safety and tolerability [3]: generally safe and well-tolerated
receptor occupancy at 125 mg (Btk [4]; read-out: Btk occupancy, cohort 1 (125 mg QD), one evaluable patient, 4 hours post-dose): 76%
receptor occupancy at 125 mg (Btk [4]; read-out: Btk occupancy, cohort 1 (125 mg QD), one evaluable patient, day 29 pre-dose): 36%

Read-outs that look alike come from different tables or passages of the source.
